The values below are quoted from earlier work in US20090123564A1, “NOVEL COMPOSITIONS FOR HAIR DISORDERS AND PROCESS OF PREPARATION THEREOF” (priority 2006, published 2009).

The data set concerns human carcinoma nasopharynx cells. Particulars: cited from earlier work.

As for vernodaline, the “IC50, cytotoxic effects” value is 1.8 µg/mL.

For the substance vernomygdine, the “IC50, cytotoxic effects” value was 1.5 µg/mL.
